Earlier results, collected in patent US8986701B2, “Enzyme prodrug cancer therapy selectively targeted to tumor vasculature and methods of production and use thereof” (The Board of Regents of the University of Oklahoma, priority 2003, dated 2015).

Key:
[1] = test system: human brain tumor xenografts; conditions: cited from earlier work
[2] = guinea pigs; cited from earlier work

**Q.** Which “toxicity in the mice” value [1] does the source give for “L-methionine-α-deamino-γ-mercaptomethane-lyase [L-methioninase]” here?
**A.** no toxicity

**Q.** And the “immune response after injection” value [2]?
**A.** shock and death
